Molecular target: Mu-type opioid receptor (Homo sapiens, UniProt P35372)
Test: Displacement of [3H]-Diprenorphine from human mu opioid receptor expressed in HEK293-TSA cell membranes after 4 hrs by scintillation counting method

By UniProt entry, the sequences of proteins in these tests, tags left out.
UniProt P35372, whole entry: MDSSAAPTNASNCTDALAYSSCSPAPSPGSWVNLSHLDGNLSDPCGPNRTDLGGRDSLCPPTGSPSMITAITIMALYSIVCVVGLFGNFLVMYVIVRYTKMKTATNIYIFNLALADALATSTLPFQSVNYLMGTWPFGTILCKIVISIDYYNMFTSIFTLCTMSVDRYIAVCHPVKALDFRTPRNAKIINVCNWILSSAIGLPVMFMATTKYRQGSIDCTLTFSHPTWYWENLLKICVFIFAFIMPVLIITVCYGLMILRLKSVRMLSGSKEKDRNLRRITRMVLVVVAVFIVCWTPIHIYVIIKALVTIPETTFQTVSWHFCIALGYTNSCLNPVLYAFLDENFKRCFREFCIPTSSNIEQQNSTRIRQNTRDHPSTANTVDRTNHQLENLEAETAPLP

| Compound | Ki |
| --- | --- |
| CCOc1ccc(Cc2nc3cc(C(=O)N(CC)CC)ccc3n2CCC(C)C)cc1 | 6.7 µM |
| CCOc1ccc(Nc2nc3cc(C(=O)N(CC)CC)ccc3n2CCC(C)C)cc1 | 53.6 µM |

From ChEMBL document CHEMBL4020829, “Structure-Activity Relationships and Computational Investigations into the Development of Potent and Balanced Dual-Acting Butyrylcholinesterase Inhibitors and Human Cannabinoid Receptor 2 Ligands with Pro-Cognitive in Vivo Profiles” (J Med Chem, 2018)
